Data reported in US5753516A, “Screening method for ligands of the EBI-1 receptor” (priority 1995, dated 1998).

Molecular target: T1, EBI1 (Homo sapiens, UniProt P32248)
T1 sequence (P32248 25-378): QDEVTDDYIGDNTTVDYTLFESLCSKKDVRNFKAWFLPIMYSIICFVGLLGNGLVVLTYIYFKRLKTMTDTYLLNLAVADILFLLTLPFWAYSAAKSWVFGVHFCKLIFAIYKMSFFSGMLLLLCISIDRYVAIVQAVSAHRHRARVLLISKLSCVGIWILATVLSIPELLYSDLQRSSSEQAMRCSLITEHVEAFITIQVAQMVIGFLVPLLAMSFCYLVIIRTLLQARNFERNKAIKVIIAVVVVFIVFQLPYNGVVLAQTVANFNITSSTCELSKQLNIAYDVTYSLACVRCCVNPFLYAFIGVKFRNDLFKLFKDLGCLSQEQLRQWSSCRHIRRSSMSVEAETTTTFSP

In the case of `C[C@@H](NC(=O)[C@@H](N)Cc1ccc(O)cc1)C(=O)NCC(=O)N(C)[C@@H](Cc1ccccc1)C(=O)NCCO` [DAMGO, [D-Ala^2, Me-Phe^4, Gly(ol)^5]-enkephalin], the “effect on intracellular cAMP, EBI1 transfectants” value is reported as “but not DAMGO (μ-agonist) or U50,488 (κ-agonist) elicited an elevation in intracellular cAMP content”.

For `CC1(C)SSC(C)(C)[C@@H](NC(=O)[C@@H](N)Cc2ccc(O)cc2)C(=O)NCC(=O)N[C@@H](Cc2ccccc2)C(=O)N[C@H]1C(=O)O` [DPDPE, [D-Pen^2,5]enkephalin], the “effect on intracellular cAMP, EBI1 transfectants” value was “elicited an elevation in intracellular cAMP content”.
